Data on one compound can be found in patent US20150313913A1, “POSITIVE ALLOSTERIC MODULATORS OF THE GABA-A RECEPTOR IN THE TREATMENT OF AUTISM” (UNIVERSITY OF WASHINGTON THROUGH ITS CENTER FOR …, priority 2013, published 2015).

Series [1] deals with BTBR mice. The series is described as follows: Open field test. It counts as in vivo. The conditions noted are these: 0.05 mg/kg daily for 14 days. As for the experimental part:
Open field test was performed as previously described (Han et al., 2012). 50×50 cm square open field arena with non-transparent white Plexiglas was used in this study. During the 10 min of trial, total distance moved, circling behavior (a complete 360-degree turn of nose angle with respect to the body center) and time in center (20×20 cm imaginary square) were measured by the video-tracking software (EthoVision XT 8.5, Noldus Technology).

The subject of series [2] is C57BL/6J hippocampal CA1 slices. The series is described as follows: Brain slice electrophysiology (spontaneous IPSC/EPSC). As to conditions: 0.5 μM. It counts as cell-based, mice.
In series [3] the test system is BTBR hippocampal CA1 slices. The series is described as above. It is filed as cell-based, mice. The conditions noted are these: 0.5 μM.
For series [4], the system named is Scn1a+/− hippocampal CA1 slices. Described as above. It is filed as cell-based, mice. As to conditions: 10 μM.
Series [5] concerns BTBR mice. The series is described as follows: Three-chamber social interaction test. As to conditions: doses from 0.00625 mg/kg to 0.05 mg/kg; from approximately 1.0 untreated. As for the experimental part:
In the three-chamber test, a test mouse is placed in the center chamber, and the preference of the test mouse for interaction with an inanimate object (a small empty cage) in the left chamber vs. a stranger mouse in an identical cage in the right chamber using a digital camera and quantitative video-tracking analysis.
The test was performed as described previously (Han et al., 2012) with minor modifications. The threechamber apparatus is a non-transparent Plexiglas box (30×60 cm) with two transparent partitions that make left, center, and right chambers (30×20 cm). In the first 10-min session, a test mouse was placed in the center of the empty three-chamber unit to habituate the test mouse. The mouse was allowed to freely explore each chamber. In the second 10-min session, an age- and gender-matched same strain mouse that had never been exposed to the test mouse, was placed in one of the two wire cages. The empty wire cage as an inanimate object cue was placed on the other side. […] Time spent in each chamber, and time spent within a 5 cm radius proximal to each wire cage, as a close interaction were measured by the videotracking software (EthoVision XT 8.5, Noldus Technology). All data shown are means±s.e.m. and analyzed using two-way ANOVA with Bonferroni's post hoc analysis and one-way ANOVA with Tukey's post hoc analysis. […]

Entries after “also recorded” stand apart in the source; their conditions may differ.

Consider `O=C1CN=C(c2ccccc2Cl)c2cc([N+](=O)[O-])ccc2N1` [Clonazepam], for which the “ratio of activity on Days 1 and 14” value in the series on BTBR mice [1] is reported as “did not alter”. Also, in series [2], the “spontaneous EPSC amplitude” value is “without change in amplitude; also recorded: not changed”, the “spontaneous EPSC frequency” value is given as “decreased”, the “spontaneous IPSC amplitude” value is “significant increase; also recorded: not changed” and the “spontaneous IPSC frequency” value is reported as “no change; also recorded: not changed”. Further, in series [3], the “spontaneous EPSC amplitude” value was “without change in amplitude; also recorded: unchanged”, the “spontaneous EPSC frequency” value is listed as “decrease in frequency”, the “spontaneous IPSC amplitude” value is listed as “increased” and the “spontaneous IPSC frequency” value is recorded as “significantly increased”. For the same compound, in series [4], the sIPSC amplitude entry is “increased”. In series [4] (listed as CLZ), the sEPSC amplitude entry was “without change in amplitude; also recorded: unchanged”, the sEPSC frequency entry is given as “decrease in frequency; also recorded: decreased” and the sIPSC frequency result is recorded as “but not frequency; also recorded: unchanged”. The “ratio of time spent interacting with the mouse vs. the object” value with BTBR mice [5] is “approximately 2.5”.
